Ab-14 light chain CDR variants: yeast mating affinities

Reference: Engelhart et al. 2022, doi:10.1038/s41597-022-01779-4. File: FLAb, binding data.

Target peptide (SARS-CoV-2 spike, HR2 region): PDVDLGDISGINAS

Ab-14 is the parent antibody, in scFv form: VH, then the linker GGGGSGGGGSGGGGS, then VL. The heavy chain is unchanged in all variants.
VH: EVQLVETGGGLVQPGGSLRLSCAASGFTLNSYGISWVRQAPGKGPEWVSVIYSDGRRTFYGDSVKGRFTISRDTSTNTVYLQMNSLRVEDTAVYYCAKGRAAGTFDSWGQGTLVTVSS
VL: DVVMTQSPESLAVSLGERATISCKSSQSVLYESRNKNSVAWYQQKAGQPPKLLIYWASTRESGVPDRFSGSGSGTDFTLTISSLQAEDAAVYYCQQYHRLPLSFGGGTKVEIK

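The starting antibody came from a phage panning campaign against this peptide. Library AAYL50 holds single substitutions and randomly drawn double and triple substitutions in the CDRs. Affinity was read by AlphaSeq, a pooled yeast mating assay with surface-displayed partners. The frequency of each diploid, read from paired DNA barcodes, reflects how well the two displayed proteins bind. Each replicate has its own calibration line, from reference interactions of the BCL2 family. Each pool was mated in three replicate cultures.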

The parent's light chain CDRs are KSSQSVLYESRNKNSVA, WASTRES, QQYHRLPLS; each variant's own CDRs replace them letter for letter. Affinities are written as log10 Kd with Kd in nM; a lower number is a better binder. A pair that was not seen in that replicate is written "n.d."; this usually means weak binding, but a binder can also be missed. Nonspecific signal, from three strains lacking the peptide, appeared in 18% of pairings of library AAYL50, centred on 4.19 (5% of these signals below 2.99); values are not corrected for it. For each scFv, signals with the empty controls are counted beside the result, with their mean in brackets.

| CDR-L1 | CDR-L2 | CDR-L3 | log10 Kd, replicates | empty controls |
|---|---|---|---|---|
| KPSQSVLYESRNKLSVA | WASTRES | QHYHRLPLS | n.d. 3.97 5.97 | 3/9 (4.77) |
| KSSQSVLYESRNKNSVA | HASTRES | QQYHRLFLS | 1.15 1.66 1.83 | 1/9 (3.85) |
| KSSQSVLHESRNKNSAA | WVSTRES | QQYHRLPLS | 5.26 n.d. 4.76 | 4/9 (5.01) |
| KSSQSVLYESRNRNLVA | WASTRES | QSYHRLPLS | n.d. n.d. n.d. | 0/9 |
| KSSQSVLYESRNKNSVA | WASTRES | QQYIRLPLS | 0.99 0.96 0.93 | 5/9 (4.07) |
| KSSQIVLYESRNKNSVA | WASTRES | QQYHRLHLH | 5.61 n.d. n.d. | 3/9 (3.94) |
| KSSRSVLWESRNKNSVA | WASTREG | QQYHRLPLS | 2.46 2.12 2.05 | 2/9 (4.10) |
| KSSQSVLDESRNKNSVA | WASQRES | QQYHMLPLS | 0.40 0.63 0.70 | 3/9 (4.21) |
| KSSQSVLSESRNKNSSA | CASTRES | QQYHRLPLS | n.d. 4.32 n.d. | 4/9 (4.11) |
| KSVQPVLYESRNYNSVA | WASTRES | QQYHRLPLS | 1.08 1.48 1.39 | 8/9 (5.42) |
| KSSQSVYYESRNSNPVA | WASTRES | QQYHRLPLS | 0.78 1.26 1.16 | 1/9 (2.82) |
| KSSQSVLYESRNKNSVA | FASTRES | QPYSRLPLS | n.d. n.d. n.d. | 1/9 (2.49) |
| KSSQSVLYESRNKNSVP | WASMRES | QQYHRLPLV | n.d. n.d. n.d. | 1/9 (3.66) |
| KSSQSVLKESRNKNSVA | WASTRAS | QQYHRLPLP | 1.80 1.30 1.78 | 1/9 (2.47) |
| KSSQSVLYESRNKNSVA | WASTRES | QQYERLPCS | 1.58 1.55 1.41 | 3/9 (3.78) |
| KSSQSVLYESRYINSVA | WASTVES | QQYHRLPLS | n.d. n.d. n.d. | 0/9 |
| KSSQSVLYEARNKNSVA | WASTRES | QRYHRPPLS | n.d. n.d. n.d. | 0/9 |
| KSSQSVLYESRNKQSAA | WACTRES | QQYHRLPLS | n.d. n.d. n.d. | 1/9 (2.64) |
| KSTQSVLYESRNKNAVA | WASTRTS | QQYHRLPLS | 1.62 1.82 2.07 | 5/9 (3.77) |
| KSSQYVPYEDRNKNSVA | WASTRES | QQYHRLPLS | 0.39 0.68 0.67 | 4/9 (4.86) |
| KSSQSVLYESRMNNSDA | WASTRES | QQYHRLPLS | 5.35 5.48 4.01 | 3/9 (4.71) |
| KSSQSVLYESRNKNSVA | WADTRFS | QQYCRLPLS | n.d. 4.98 n.d. | 3/9 (4.13) |
| KRSQSVLYLSDNKNSVA | WASTRES | QQYHRLPLS | 1.65 1.78 2.03 | 0/9 |
| KSSQSVLYESRNKNSCA | WASLRES | QQYHRLPLS | 6.47 3.37 5.10 | 5/9 (4.78) |
| MSSQKVLYEARNKNSVA | WASTRES | QQYHRLPLS | 1.97 1.70 2.03 | 6/9 (4.30) |
| KSSQIVLYESRNKNSVA | WADTRES | QKYHRLPLS | 2.49 2.53 3.05 | 1/9 (3.79) |
| KSSQSVLYESRNKFSVA | WASTRES | MQYHRLPLT | 1.11 1.04 1.61 | 0/9 |
| KSSQSVLYESENKNSVA | WASTRES | QEYHRLHLS | 1.29 1.55 1.27 | 0/9 |
| KSSQSILYESRNKNSVA | WASTRFS | QMYHRLPLS | 3.87 3.51 2.75 | 0/9 |
| KQSQSVLYESRNKNSVA | WASTREH | QSYHRLPLS | 1.01 1.23 1.34 | 4/9 (4.54) |
| KSLNSVLYESRNKNSVA | WASTRES | QQYHRLKLS | n.d. n.d. n.d. | 0/9 |
| KSSQSTLYESRMKNSVA | WASTRES | QQYHRLPLS | 1.27 1.15 1.01 | 6/9 (4.15) |
| KSCQSVLYEARNKNCVA | WASTRES | QQYHRLPLS | 3.74 n.d. n.d. | 1/9 (3.91) |
| GSSQQVLYESRNKNSVA | WASTRVS | QQYHRLPLS | 0.82 1.06 1.03 | 1/9 (3.50) |
| KCSRSVLYESRNKNSVA | WASSRES | QQYHRLPLS | 4.13 2.73 3.40 | 6/9 (4.37) |
| LSSQEVLYESRNKNSVA | NASTRES | QQYHRLPLS | n.d. 3.33 n.d. | 4/9 (4.17) |
| TSSQSVLYESRNKNSVA | WAGTRES | QYYHRLPLS | n.d. 3.97 n.d. | 2/9 (3.57) |
| KSSQSVLYESRLKNSVA | WASTRES | QQYHPLPLS | n.d. n.d. n.d. | 0/9 |
| KNSQSVLYESRNHNSVA | WASTRES | QQYHCLPLS | n.d. 3.95 n.d. | 3/9 (4.55) |
| KSSQSVLYEGRNKNSVA | WASTRES | QQYHRWPRS | n.d. n.d. n.d. | 0/9 |

The first 5 variants above that were never detected:

| CDR-L1 | CDR-L2 | CDR-L3 | log10 Kd, replicates | empty controls |
|---|---|---|---|---|
| KSSQSVLYESRNRNLVA | WASTRES | QSYHRLPLS | n.d. n.d. n.d. | 0/9 |
| KSSQSVLYESRNKNSVA | FASTRES | QPYSRLPLS | n.d. n.d. n.d. | 1/9 (2.49) |
| KSSQSVLYESRNKNSVP | WASMRES | QQYHRLPLV | n.d. n.d. n.d. | 1/9 (3.66) |
| KSSQSVLYESRYINSVA | WASTVES | QQYHRLPLS | n.d. n.d. n.d. | 0/9 |
| KSSQSVLYEARNKNSVA | WASTRES | QRYHRPPLS | n.d. n.d. n.d. | 0/9 |

In this assay the parent's reference entry averaged 0.65; its copy inside this library read 1.68.